{"source": "BindingDB's records for doi:10.1021/jm00010a022", "about": "(Duquesne University, 1995)", "test": "Inhibitory activity against cultured Toxoplasma gondii", "data": [{"smiles": "COc1cc(NCc2cnc3nc(N)nc(N)c3c2C)cc(OC)c1OC", "note": "[5-Methyl-6-[(3,4,5-trimethoxy-phenylamino)-methyl]-pyrido[2,3-d]pyrimidine-2,4-diamine]", "values": [{"measurement": "IC50", "result": 23, "unit": "µM"}]}]}
